# Water solubility values, as collected for the OPERA models

From the experimental data distributed with OPERA 2.9.

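The OPERA project collected these measurements from public sources as training and test data for property models. One number stands for a compound and property, with no spread given. Method and conditions are not stated for these values. The measured form (salt, isomer or mixture) is not always the one drawn. Some upstream entries may be estimates or bounds without being marked so.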

Solubility in water is on a log10 molar scale (set defined at 25 °C). "n/a" marks a cell with nothing listed here.

compound,name,water solubility (log10 mol/L)
CN(Cc1cc(Br)cc(Br)c1N)C1CCCCC1.Cl,Bromhexine hydrochloride,-5.01
CC(=O)CCCC(C)CCCC(C)CCCC(C)C (stereo not given),"2-pentadecanone, 6,10,14-trimethyl-",-5.475
Cc1ccc(Sc2ccc(C(=O)c3ccccc3)cc2)cc1,"Methanone, [4-[(4-methylphenyl)thio]phenyl]phenyl-",-7.615
CCOc1ccc(C2(C(=O)OC(C#N)c3cccc(Oc4ccccc4)c3)CC2(Cl)Cl)cc1 (stereo not given),Cycloprothrin,-6.719
N=C(N)NCC1COC2(CCCCC2)O1.N=C(N)NCC1COC2(CCCCC2)O1.O=S(=O)(O)O (stereo not given),Guanadrel sulfate,-0.839
COc1cc(N=Nc2c(Br)cc([N+](=O)[O-])cc2[N+](=O)[O-])c(NC(C)=O)cc1N(CCOC(C)=O)CCOC(C)=O,C.I. Disperse Blue 79:1,-5.495
CC(C)CCC(C)C(=O)O (stereo not given),"2,5-Dimethylhexanoic acid",-1.983
CCCCC(CC)CNc1ccc(NCC(CC)CCCC)c2c1C(=O)c1c(O)ccc(O)c1C2=O (stereo not given),n/a,-8.995
NC(=O)NCCCC[C@H](N)C(=O)O,Homocitrulline,0.501
C[C@@H]1O[C@@H](Oc2c(-c3ccc(O)c(O)c3)oc3cc(O)cc(O)c3c2=O)[C@H](O)[C@H](O)[C@H]1O,Quercitrin,-3.845
COc1ccc(NS(=O)(=O)c2ccc(N)cc2)nn1,Sulfamethoxypyridazine,-3.28
O=C1C=CC(=O)N1C1CCCCC1,"1H-Pyrrole-2,5-dione, 1-cyclohexyl-",-2.838
CCOc1ccc(-c2ccc(C)cc2)c(F)c1F,n/a,-6.249
CCCC1CCC(C2CCC(C(F)(F)Oc3cc(F)c(F)c(F)c3)CC2)CC1 (stereo not given),n/a,-6.369
O=c1oc(-c2ccccc2)nc2ccccc12,"2-Phenyl-3,1-benzoxazin-4-one",-4.61
OC1(c2ccc(-c3ccc(C4(O)c5ccccc5-c5ccccc54)cc3)cc2)c2ccccc2-c2ccccc21,n/a,-8.41
CNCC(O)c1ccc(OC(=O)C(C)(C)C)c(OC(=O)C(C)(C)C)c1 (stereo not given),Dipivefrin,-3.781
COCc1ccc(O)c(OC)c1,2-Methoxy-4-(methoxymethyl)phenol,-1.893